Laboratory results: patent publication US5574070A, “Substituted guanidines having high binding to the sigma receptor and the use thereof” (priority 1993, dated 1996)
Like-named read-outs stand apart in the source and are kept apart here.

Chains of the proteins cited; added tags and fusions are not shown.
UniProt Q60492, whole entry: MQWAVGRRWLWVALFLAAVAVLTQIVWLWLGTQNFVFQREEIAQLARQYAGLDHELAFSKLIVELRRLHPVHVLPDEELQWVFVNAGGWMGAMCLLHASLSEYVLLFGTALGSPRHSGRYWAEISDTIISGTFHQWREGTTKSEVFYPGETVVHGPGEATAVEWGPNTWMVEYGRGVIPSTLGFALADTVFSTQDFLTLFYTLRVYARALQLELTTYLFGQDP

What was measured:
sigma receptor [1] = experiment: [3H]DTG displacement radioligand binding assay, guinea pig brain membranes; conditions: for IC50: read-out: IC50 vs. [3H]DTG
sigma receptor [2] = biological target: sigma receptor (Cavia porcellus, UniProt Q60492); experiment: biochemical; conditions: IC50 vs. (+)[3H]3-PPP, Table III; ± SEM; average from 2-4 separate experiments in triplicate

Compound: [leu^5 ] enkephalin [reference compound]
- displacement of [3H]DTG (sigma receptor [1]; 10 uM): no significant displacement

Compound: CC1C2Cc3ccc(O)cc3C1(C)CCN2CC1CC1 (single isomer, unassigned; (+)) [(+)Cyclazocine, reference compound]
- IC50 (sigma receptor [2]): 47 ± 12 nM
- IC50 (sigma receptor [1]): 365 ± 25 nM

Compound: CN1CCN(CCCN2c3ccccc3Sc3ccc(C(F)(F)F)cc32)CC1 [Trifluoperazine, reference compound]
- IC50 (sigma receptor [1]; Table III, ± SEM, average from 2-4 separate experiments in triplicate): 345 ± 4 nM

Compound: CC1C2Cc3ccc(O)cc3C1(C)CCN2CC1CC1 (single isomer, unassigned; (-)) [(-)Cyclazocine, reference compound]
- IC50 (sigma receptor [2]): 1000 nM
